## Membrane permeability of cyclic peptides

Source: CycPeptMPDB (Li et al. 2023), which took these values from Townsend et al. 2020, doi:10.26434/chemrxiv.13335941.v1.

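Lipid, pH, incubation time, direction and concentration are not recorded in the data file. Other peptides of the study may be missing here. Peptides that the database sets to -10, its floor, are left out.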

PAMPA measures passive passage through an artificial lipid membrane. Values are log10 P with P in cm/s, so -5 is more permeable than -7.

structure (SMILES),PAMPA (log10 cm/s)
CCCN1CC(=O)N[C@@H](CC(C)C)C(=O)N(C)[C@@H](CC(C)C)C(=O)N2CCC[C@H]2C(=O)N[C@H](CC(C)C)C(=O)N[C@@H](Cc2ccccc2)C(=O)N2CCC[C@H]2C1=O,-6.14
CC(C)C[C@H]1C(=O)N[C@@H](Cc2ccccc2)CC(=O)N2CCC[C@H]2C(=O)N(Cc2ccccc2)CC(=O)N[C@@H](Cc2ccccc2)C(=O)N2CCC[C@H]2C(=O)N(C)[C@H](C)C(=O)N1C,-5.90
CC(C)C[C@@H]1C(=O)N[C@@H](Cc2ccccc2)C(=O)N2CCC[C@H]2C(=O)N[C@H](C)C(=O)N[C@H](CC(C)C)C(=O)N(Cc2ccccc2)CC(=O)N2CCC[C@H]2C(=O)N1C,-6.60
CC(C)C[C@H]1NC(=O)[C@@H](C)N(C)C(=O)[C@H]2CCCN2C(=O)[C@H](Cc2ccccc2)NC(=O)[C@H](CC(C)C)N(C)C(=O)[C@@H]2CCCN2C(=O)[C@@H](CC(C)C)NC1=O,-5.75
CC(C)C[C@H]1C(=O)N[C@@H](Cc2ccccc2)CC(=O)N2CCC[C@@H]2C(=O)N(Cc2ccccc2)CC(=O)N[C@@H](Cc2ccccc2)C(=O)N2CCC[C@@H]2C(=O)N(C)[C@H](C)C(=O)N1C,-7.18
CC(C)C[C@@H]1NC(=O)[C@@H](CC(C)C)NC(=O)C[C@H](Cc2ccccc2)NC(=O)[C@H]2CCCN2C(=O)[C@H](Cc2ccccc2)NC(=O)[C@@H](CC(C)C)N(C)C(=O)[C@H]2CCCN2C1=O,-5.33
CC(C)C[C@@H]1C(=O)N(Cc2ccccc2)CC(=O)N2CCC[C@@H]2C(=O)N(C)[C@H](CC(C)C)C(=O)N[C@@H](Cc2ccccc2)C(=O)N2CCC[C@H]2C(=O)N[C@@H](C)C(=O)N1C,-6.25
CC(C)C[C@@H]1NC(=O)[C@H](C)N(C)C(=O)[C@@H]2CCCN2C(=O)[C@H](Cc2ccccc2)NC(=O)[C@H](CC(C)C)N(C)C(=O)[C@H]2CCCN2C(=O)CN(Cc2ccccc2)C1=O,-5.32
CC(C)C[C@H]1NC(=O)[C@@H]2CCCN2C(=O)[C@H](CC(C)C)N(C)C(=O)[C@@H](CC(C)C)NC(=O)[C@@H](C)N(C)C(=O)[C@H](Cc2ccccc2)NC1=O,-5.05
CC(C)C[C@@H]1C(=O)N(Cc2ccccc2)CC(=O)N2CCC[C@@H]2C(=O)N(C)[C@@H](CC(C)C)C(=O)N[C@@H](Cc2ccccc2)C(=O)N[C@@H](Cc2ccccc2)CC(=O)N1C,-5.82
CC(C)C[C@@H]1NC(=O)[C@H]2CCCN2C(=O)[C@@H](CC(C)C)N(C)C(=O)[C@@H](CC(C)C)NC(=O)[C@H](C)N(C)C(=O)[C@H](Cc2ccccc2)NC1=O,-5.71
CC(C)C[C@@H]1NC(=O)[C@H](CC(C)C)N(C)C(=O)C[C@H](Cc2ccccc2)NC(=O)[C@H](Cc2ccccc2)NC(=O)[C@@H](CC(C)C)N(C)C(=O)[C@@H]2CCCN2C1=O,-5.26
CC(C)C[C@H]1NC(=O)[C@@H]2CCCN2C(=O)[C@@H](CC(C)C)NC(=O)[C@H](CC(C)C)N(C)C(=O)[C@H](C)N(C)C(=O)[C@@H]2CCCN2C(=O)[C@H](Cc2ccccc2)NC1=O,-7.13
CC(C)C[C@@H]1NC(=O)[C@@H](CC(C)C)N(C)C(=O)[C@H](C)NC(=O)[C@H]2CCCN2C(=O)[C@H](Cc2ccccc2)NC(=O)[C@@H](CC(C)C)N(C)C(=O)[C@@H]2CCCN2C1=O,-5.40

2 of these entries, quoted again:

structure (SMILES),PAMPA (log10 cm/s)
CC(C)C[C@H]1NC(=O)[C@@H]2CCCN2C(=O)[C@@H](CC(C)C)NC(=O)[C@H](CC(C)C)N(C)C(=O)[C@H](C)N(C)C(=O)[C@@H]2CCCN2C(=O)[C@H](Cc2ccccc2)NC1=O,-7.13
CC(C)C[C@@H]1C(=O)N(Cc2ccccc2)CC(=O)N2CCC[C@@H]2C(=O)N(C)[C@H](CC(C)C)C(=O)N[C@@H](Cc2ccccc2)C(=O)N2CCC[C@H]2C(=O)N[C@@H](C)C(=O)N1C,-6.25